Assay results as given in patent US20250236603A1, “SOLID FORMS OF ALECTINIB AND ALECTINIB SALTS” (Synthon B.V., priority 2022, published 2025).

Assay: Solubilities of prepared salts (buffer pH 1.2 with 4% Triton X-100, HPLC)
Conditions: Example 28, 20 mg salt in 10 ml buffer pH 1.2 and 4% Triton X-100, +37° C., 100 rpm

Question: For “Alectinib ethane sulfonate salt [Ethane sulfonate salt, Form 1]”, which “Solubility after 1 hour” value is on record?
Answer: Its value is 1270 µg/mL.
